Patent publication US20250387420A1, “Prevention of Nausea and Vomiting from Antibody-Drug Conjugates and other Long-Acting Emetogenics” (Helsinn Healthcare SA, priority 2024, published 2025)

Tests used:
[1] = test system: patients with HER2-positive ABC treated with T-DXd; conditions: at data cutoff; 59 patients
[2] = test system: patients with HER2+/HER2-low MBC treated with T-DXd; assay: Association between N&V in one cycle and fatigue in the next, logistic regression; format: in vivo, human; conditions: for Probability to Develop Fatigue: estimate from logistic model

Substance: trastuzumab deruxtecan [T-DXd]
- patients who discontinued due to death [1]: 7%
- Probability to Develop Fatigue ([2]; Previous CINV NO): 0.2176
- Probability to Develop Fatigue ([2]; Previous CINV YES): 0.4579
- estimated probability of developing fatigue ([2]; patients who experienced NV in the prior cycle): 45.8%
- estimated probability of developing fatigue ([2]; patients without NV in the prior cycle): 21.8%
